Laboratory results from PubChem BioAssay AID1620 (Sanford-Burnham Center for Chemical Genomics, 2009).
Calls of active or inactive are those of the source.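 The calls were made as follows: active = toxicity graded low, moderate or high, meaning less radioactive sulfur built into protein than in solvent-only controls; inactive = the rest.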

System: HeLa, 35S-Met/Cys protein incorporation toxicity, 3 h
Test: HeLa cytotoxicity by protein synthesis, late-stage follow-up, cytotoxicity control for PMI inhibitor project, HeLa cells (AID 1620)

## CN(C)C(=O)c1cccc(-n2sc3ccccc3c2=O)c1
  outcome: inactive; no toxicity
